Experimental data as given in patent publication US20240082211A1, “SOLUBLE EPOXIDE HYDROLASE AS A TARGET FOR OCULAR DISEASES” (Indiana University Research and Technology Corporation, priority 2017, published 2024).

Key:
[1] = tested on: sEH; test: Lipid profiling of retina/choroid in L-CNV mice (19,20-EDP/DHDP ratio as sEH activity in vivo); design: species or system mouse; settings: 10 μM intravitreal, 3 days post-laser, vs vehicle treated controls
Method: The L-CNV mouse model and injections were performed as previously described. […] Compounds where indicated were injected a single time immediately post-laser treatment, delivered intravitreally using a 33-gauge needle, in a 0.5 μL volume. SH-11037, t-AUCB, or 7 were dissolved in DMSO then diluted in PBS to a final concentration of 0.5% (v/v) DMSO. Vehicle alone (PBS+0.5% (v/v) DMSO) was used as negative control. Mouse anti-VEGF164 antibody (AF-493-NA, R&D Systems) at a 5 ng dose was used as a positive control for inhibition of neovascularization. Eyes were numbed with tetracaine solution before the injection, and triple antibiotic ointment was used immediately after the injection to prevent infection. Lipid Profiling
C57BL/6J mice underwent laser treatment followed by intravitreal injections of 10 μM SH-11037, 10 μM t-AUCB or vehicle control as described above. Mice were sacrificed 3 days post-laser-treatment, eyes were enucleated and retina/choroid layers were immediately separated and stored at −80° C. Lipid profile analysis was performed by the Lipidomics Core Facility at Wayne State University using standard operating procedures developed by the core as previously described (Maddipati, et al. (2011), Prostaglandins Other Lipid Mediators 94, 59-72).

[2] = tested on: choroidal neovascularization; test: Laser-induced choroidal neovascularization (L-CNV) mouse model, CNV lesion volume; settings: in vivo

O=C(NC12CC3CC(CC(C3)C1)C2)N[C@H]1CC[C@H](Oc2ccc(C(=O)O)cc2)CC1 (relative stereo) [t-AUCB, trans-4-(4-[3-adamantan-1-yl-ureido]-cyclohexyloxy)-benzoic acid]
ratio of 19,20-EDP to 19,20-DHDP in retina/choroid [1]: partially normalized | CNV lesion vascular volume [2]: dose-dependently suppressed
